Results as given in patent EP0032748B1, “Thiophene derivatives” (UBE INDUSTRIES, LTD., priority 1980, dated 1981).

Experiments:
[1] = system: cucumber (variety: Sagami Hanjiro); test: Test Example 7: degree of phytotoxicity on cucumber (injury rating); assay type: in vivo; conditions: concentration of spray liquid 200 ppm
Source text: (§1) On the following day, the seedlings were inoculated by atomizing technique with a spore suspension of cucumber powdery mildew fungus (Erysiphe cicholrcearum).

[2] = system: paddy rice; conditions: Table 4, spray liquid 500 ppm
[3] = system: Pellicularia sasakii; assay type: in vivo; conditions: Table 4, spray liquid 500 ppm, paddy rice sheath blight
[4] = system: cucumber powdery mildew fungus (Erysiphe cicholrcearum); test: Test Example 7: control effect on cucumber powdery mildew (spray on seedlings); assay type: in vivo; conditions: concentration of spray liquid 200 ppm, ten days after the inoculation
Source text: as §1

CCOC(=O)c1sc(C(=O)OCC)c(OC(=O)c2ccco2)c1OC(=O)c1ccco1 [Compound No. 296, 3,4-Di-(2'-furoyloxy)-2,5-dicarbethoxythiophene]
Degree of phytotoxicity [1]: 0
Degree of phytotoxicity [2]: 0
Control value [3]: 83%
Control value (%) [4]: 100%
